According to US20130225488A1 (CADILA HEALTHCARE, published 2013):

Biological target: Human GLP-1 receptor (human) (UniProt P43220)
Experiment: cell-based or functional assay

Substance: Exendin-4 (from UniProt P26349) (peptide)
- cAMP release, % activity with respect to control; test compound 1 nM: 89%
- cAMP release, % activity with respect to control; test compound 10 nM: 96%
- cAMP release, % activity with respect to control; test compound 100 nM: 99%
- cAMP release, % activity with respect to control; test compound 1 µM: 99%
- cAMP release, % activity with respect to control; test compound 10 µM: 99%
